Results on three compounds are retold here after ChEMBL document CHEMBL1681725, “Novel potent pyrimido[4,5-c]quinoline inhibitors of protein kinase CK2: SAR and preliminary assessment of their analgesic and anti-viral properties” (Bioorg Med Chem Lett, 2011).

Protein sequences, listed by entry. Tags and fused reporters are not part of them.
UniProt P19784, whole entry: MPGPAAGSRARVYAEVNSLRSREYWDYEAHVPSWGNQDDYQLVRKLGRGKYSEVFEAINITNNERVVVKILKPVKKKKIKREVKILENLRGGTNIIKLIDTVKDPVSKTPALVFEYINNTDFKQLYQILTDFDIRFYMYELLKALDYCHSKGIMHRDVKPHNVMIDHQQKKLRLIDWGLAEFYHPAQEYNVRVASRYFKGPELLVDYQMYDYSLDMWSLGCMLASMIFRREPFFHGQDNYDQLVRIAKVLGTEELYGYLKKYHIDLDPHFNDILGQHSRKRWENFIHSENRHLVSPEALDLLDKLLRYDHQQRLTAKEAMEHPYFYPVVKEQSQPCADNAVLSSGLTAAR
UniProt P67870, whole entry: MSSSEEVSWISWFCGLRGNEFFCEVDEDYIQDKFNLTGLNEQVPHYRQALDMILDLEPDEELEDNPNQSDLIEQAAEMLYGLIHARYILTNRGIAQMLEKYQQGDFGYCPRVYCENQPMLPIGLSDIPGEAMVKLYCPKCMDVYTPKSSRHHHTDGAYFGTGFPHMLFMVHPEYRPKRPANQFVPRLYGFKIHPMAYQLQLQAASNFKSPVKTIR
UniProt P68400, whole entry: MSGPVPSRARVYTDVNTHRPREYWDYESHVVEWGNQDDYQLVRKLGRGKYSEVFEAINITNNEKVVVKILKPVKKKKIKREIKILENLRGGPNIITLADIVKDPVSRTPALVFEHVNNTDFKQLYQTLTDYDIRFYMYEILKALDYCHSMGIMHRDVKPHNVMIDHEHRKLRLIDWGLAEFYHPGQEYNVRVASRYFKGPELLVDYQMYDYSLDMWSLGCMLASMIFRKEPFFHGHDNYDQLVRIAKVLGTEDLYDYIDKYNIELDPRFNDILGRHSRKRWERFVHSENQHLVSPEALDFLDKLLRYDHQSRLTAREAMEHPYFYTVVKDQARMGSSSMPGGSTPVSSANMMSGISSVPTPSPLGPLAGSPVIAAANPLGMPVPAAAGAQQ

The test deals with Casein kinase II (Homo sapiens, UniProt P19784+P67870+P68400). The test can be described thus: Inhibition of human recombinant CK2 by radiometric assay. Format: protein-complex assay.
Turning to `CN(C)c1ncc2c(n1)c(Nc1cccc(Cl)c1)nc1cc(C(=O)O)ccc12`, the IC50 (as a rule, the concentration at which inhibition is half-maximal) is more than 750 nM.

Regarding `CCOc1ncc2c(n1)c(Nc1cccc(C(F)(F)F)c1)nc1cc(C(=O)O)ccc12`, the IC50 is more than 750 nM. Regarding `NC(=O)c1ccc2c(c1)nc(Nc1cccc(C(F)(F)F)c1)c1nc(NC3CC3)ncc12`, the IC50 was more than 750 nM.
